{"source": "paper PMC5770336", "about": "“Characterisation of endogenous A2A and A2B receptor-mediated cyclic AMP responses in HEK 293 cells using the GloSensor™ biosensor: Evidence for an allosteric mechanism of action for the A2B-selective antagonist PSB 603” (Biochemical Pharmacology, 2018)", "target": "T1, A2BAR (Homo sapiens, UniProt P29275)", "T1 sequence (P29275 1-332)": "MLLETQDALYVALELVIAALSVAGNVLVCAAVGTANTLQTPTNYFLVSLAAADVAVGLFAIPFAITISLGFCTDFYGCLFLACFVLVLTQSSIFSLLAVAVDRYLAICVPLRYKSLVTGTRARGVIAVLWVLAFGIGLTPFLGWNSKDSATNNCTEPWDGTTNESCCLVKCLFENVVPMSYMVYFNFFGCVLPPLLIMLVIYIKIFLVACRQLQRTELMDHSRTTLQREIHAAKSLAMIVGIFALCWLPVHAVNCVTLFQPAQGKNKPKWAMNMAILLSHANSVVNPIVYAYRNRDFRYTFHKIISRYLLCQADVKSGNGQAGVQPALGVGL", "conditions": "agonist concentration-response curves with increasing antagonist", "data": [{"molecule": "CCCn1c(=O)c2[nH]c(-c3ccc(OCC(=O)NCCN)cc3)nc2n(CCC)c1=O", "note": "[XAC, xanthine amine congener]", "values": [{"measurement": "mode of antagonism (in words)", "value": "competitive interaction"}]}]}
